This passage reports IC50 results from PMC10548181 (RSC Advances, 2023).

Protein sequences, listed by entry. Tags and fused reporters are not part of them. Lines headed by an entry give the natural chain unless they say otherwise; changes in a name come on top.
UniProt P42338: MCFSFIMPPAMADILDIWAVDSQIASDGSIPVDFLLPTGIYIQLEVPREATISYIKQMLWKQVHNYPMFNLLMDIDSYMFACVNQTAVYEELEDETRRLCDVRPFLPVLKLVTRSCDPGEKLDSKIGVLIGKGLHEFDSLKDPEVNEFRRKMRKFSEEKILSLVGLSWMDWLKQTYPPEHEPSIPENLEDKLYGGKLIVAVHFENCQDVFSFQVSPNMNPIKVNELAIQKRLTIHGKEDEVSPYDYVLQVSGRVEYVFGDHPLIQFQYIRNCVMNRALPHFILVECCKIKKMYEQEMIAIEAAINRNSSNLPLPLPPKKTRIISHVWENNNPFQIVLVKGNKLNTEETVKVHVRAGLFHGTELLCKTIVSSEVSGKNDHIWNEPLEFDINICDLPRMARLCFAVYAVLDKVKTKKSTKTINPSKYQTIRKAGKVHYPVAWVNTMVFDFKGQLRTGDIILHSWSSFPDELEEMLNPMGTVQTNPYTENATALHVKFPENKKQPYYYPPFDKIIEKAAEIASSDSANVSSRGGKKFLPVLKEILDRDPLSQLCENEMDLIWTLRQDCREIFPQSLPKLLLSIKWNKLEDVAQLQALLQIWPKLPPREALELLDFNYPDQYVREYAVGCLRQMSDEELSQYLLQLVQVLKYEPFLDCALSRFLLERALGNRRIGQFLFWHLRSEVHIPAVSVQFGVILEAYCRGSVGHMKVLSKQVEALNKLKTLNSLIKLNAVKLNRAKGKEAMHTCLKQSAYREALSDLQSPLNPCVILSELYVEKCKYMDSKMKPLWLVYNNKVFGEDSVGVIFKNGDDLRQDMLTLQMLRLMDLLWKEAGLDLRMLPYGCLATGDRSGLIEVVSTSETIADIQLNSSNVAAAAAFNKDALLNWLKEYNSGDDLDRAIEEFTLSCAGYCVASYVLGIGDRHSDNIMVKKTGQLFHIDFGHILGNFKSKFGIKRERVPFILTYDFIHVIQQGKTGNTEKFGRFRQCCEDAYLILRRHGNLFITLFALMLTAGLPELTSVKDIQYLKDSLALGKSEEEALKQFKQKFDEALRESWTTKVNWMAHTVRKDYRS

This assay deals with PI3Kβ (p110β/p85α) (Homo sapiens, UniProt P42338). The assay is described as follows: In vitro PI3K activity assay. Type of assay: biochemical.

On to `O=c1cc(N2CCOCC2)oc2c(-c3ccccc3)cccc12` [LY294002, reference compound], for which half-maximal inhibition (IC50) was put at 0.038 ± 0.002 µM.
